This is an account of results in patent publication US12486265B2, “2-aminopyrimidine compounds and pharmaceutical compositions and uses thereof” (Shanghai Zhimeng Biopharma, Inc., priority 2019, dated 2025).

The assay concerns the target T1, human TLR8 (Homo sapiens, UniProt Q9NR97).
T1 construct: host or cells: HEK-Blue hTLR8 (HEK293-derived)
T1 sequence (Q9NR97 27-1041): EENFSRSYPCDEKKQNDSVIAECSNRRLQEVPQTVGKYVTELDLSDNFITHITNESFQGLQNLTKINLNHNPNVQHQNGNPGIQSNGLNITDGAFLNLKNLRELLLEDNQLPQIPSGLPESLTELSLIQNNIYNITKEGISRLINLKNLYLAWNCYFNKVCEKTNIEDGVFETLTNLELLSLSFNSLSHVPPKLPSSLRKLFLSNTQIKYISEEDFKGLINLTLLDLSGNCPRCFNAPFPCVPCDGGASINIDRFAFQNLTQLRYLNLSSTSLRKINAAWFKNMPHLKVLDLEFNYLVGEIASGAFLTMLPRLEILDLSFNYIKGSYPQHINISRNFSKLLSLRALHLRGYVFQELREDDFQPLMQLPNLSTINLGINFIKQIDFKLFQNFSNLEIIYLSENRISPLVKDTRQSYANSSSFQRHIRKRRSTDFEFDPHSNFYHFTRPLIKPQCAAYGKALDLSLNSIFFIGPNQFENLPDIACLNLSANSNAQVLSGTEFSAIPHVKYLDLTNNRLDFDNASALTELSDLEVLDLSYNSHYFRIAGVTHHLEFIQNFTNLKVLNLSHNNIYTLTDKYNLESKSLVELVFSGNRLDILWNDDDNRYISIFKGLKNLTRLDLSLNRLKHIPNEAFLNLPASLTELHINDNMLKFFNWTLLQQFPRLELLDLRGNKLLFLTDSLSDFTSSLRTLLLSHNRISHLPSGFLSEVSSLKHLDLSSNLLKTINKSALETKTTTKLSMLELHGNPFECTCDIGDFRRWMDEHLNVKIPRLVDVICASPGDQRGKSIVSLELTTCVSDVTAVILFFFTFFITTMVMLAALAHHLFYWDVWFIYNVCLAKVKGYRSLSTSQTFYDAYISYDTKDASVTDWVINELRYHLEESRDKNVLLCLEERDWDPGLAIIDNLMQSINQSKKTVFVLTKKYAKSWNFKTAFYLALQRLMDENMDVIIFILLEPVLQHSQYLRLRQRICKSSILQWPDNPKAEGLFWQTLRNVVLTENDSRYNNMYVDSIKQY
The experiment in a line: hTLR8 receptor binding activity in vitro (HEK-Blue hTLR8 SEAP reporter). The format is cell-based. As to the method: The ability of the compounds of the present invention to activate TLR7 and TLR8 respectively was evaluated by using receptor binding experiments in vitro.
HEK-Blue™ hTLR7 (article number: hkb-htlr7) and HEK-Blue™ hTLR8 (article number: hkb-htlr8) cells were purchased from InvivoGen company. HEK-Blue™ hTLR7/8 cells can indicate the activation of TLR7/8 by detecting the activation level of NF-κB signaling pathway. HEK-Blue™ hTLR7/8 cells are derived from human embryonic kidney 293 cells, stably expressing human TLR7 or human TLR8, respectively, and can induce expression of secretory alkaline phosphatase (SEAP) to report gene system. The expression of SEAP reporter gene is regulated by IFN-β simplified promoter, which is composed of 5 NF-κB binding sequences and AP-1 binding sequences. Therefore, when TLR7/8 is activated in these two cells, NF-κB and AP-1 will be activated, and SEAP expression and extracellular secretion will be induced. […]
[drawing 45] per well; • (2) HEK-Blue™ hTLR7/8 cells were digested separately, counted, and the cells at 5.0×10^4 cells per well were added to a 96-well cell culture plate containing compounds; (3) The cells added with the compound were placed in a 5% CO2 incubator at 37° C. for 24 hours; • (4) Compound activity detection: took 20 µl/well cell culture supernatant and added it to 96-well plate containing 180 μl QUANTI-BLUE™ reagent. […]

Regarding `CCCC[C@](C)(CNC(C)=O)Nc1nc(N)nc2cc(C(=O)N(C)C)cnc12` [Compound A], it took 52 nM to reach a half-maximal effect (EC50). The “selectivity for TLR8 activation” value (TLR8 versus TLR7, compared with compound X) was “higher selectivity for TLR8 activation than compound X”.

One may read the EC50 as the concentration that produces a half-maximal response. Lower therefore signals greater potency.
